In one assay the target is COX-2. As to the kind of experiment: Evaluation of COX-2 activity in vitro (PGE2 ELISA, recombinant enzyme). In kind it is biochemical, human or murine. As to conditions: read-out: COX-2 IC50, arachidonic acid 10 μM, pH 8.0, pre-incubation 10-20 minutes.
In the next assay the target is COX-1. The assay is described as follows: Evaluation of COX-1 activity in vitro (PGE2 ELISA, recombinant enzyme). In kind it is biochemical, human or murine. The following applies: read-out: COX-1 IC50, arachidonic acid 10 μM, pH 8.0, pre-incubation 10-20 minutes. Background: ELISA stands for enzyme-linked immunosorbent assay.

The record followed here is US5859257A (dated 1999).

Broadly, the IC50 is the concentration that gives 50% inhibition. In the case of `CCc1noc(-c2ccccc2)c1-c1ccc(S(C)(=O)=O)cc1` [Example 29, 3-Ethyl-4-(4-methylsulfonylphenyl)-5-phenylisoxazole], at COX-2, the IC50 was found to be 300 nM.

Regarding `NS(=O)(=O)c1ccc(-c2c(-c3ccccc3)noc2CC(=O)O)cc1` [Example 9, [4-[4-(Aminosulfonyl)phenyl]-3-phenylisoxazol-5-yl]acetic acid], the IC50 on COX-2 was found to be 1400 nM.

`NS(=O)(=O)c1ccc(-c2c(-c3ccccc3)noc2C2CCCCC2)cc1` [Example 1f, 4-[5-cyclohexyl-3-phenylisoxazol-4-yl]benzenesulfonamide]: the IC50 on COX-2 is 200 nM.

Regarding `Cc1noc(-c2ccccc2)c1-c1ccc(S(N)(=O)=O)cc1` [Example 13, 4-[3-Methyl-5-phenylisoxazol-4-yl]benzenesulfonamide], the IC50 on COX-2 is less than 100 nM.

In the case of `Cc1onc(-c2ccc(F)c(F)c2)c1-c1ccc(S(N)(=O)=O)cc1` [Example 49, 4-[3-(3,4-Difluorophenyl)-5-methylisoxazol-4-yl]benzenesulfonamide], the IC50 at COX-2 was 1000 nM.

For the compound `Cc1onc(-c2ccccc2)c1-c1ccc(S(N)(=O)=O)cc1` [Example 1, 4-[5-Methyl-3-phenylisoxazol-4-yl]benzenesulfonamide], the IC50 at COX-1 was greater than 100 µM.
